TDP1 block: blocks human tyrosyl-DNA phosphodiesterase 1. recombinant TDP1, AlphaScreen DNA substrate cleavage. Potency, µM (highest dose often 130 µM), for the others: at the top dose activity change, negative = inhibition, hits mostly inhibitors. hit rate 0.28% among 350,000. AID 485290; note: potency is the fitted concentration of half-maximal effect; % is set by controls: 0 for no effect and ±100 for the full control effect; nearly all actives have a fitted effect of over 40% in size
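Signal: AlphaScreen proximity between streptavidin donor and anti-FITC acceptor beads on intact substrate. Reaction: Tdp1 1 nM, substrate 15 nM final, 5 min RT after 15 min compound preincubation.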
uPA surface inh: inhibitors of cell surface uPA generation; Potency, µM (top dose mostly 38.3 µM), without a hit: at the highest dose activity change, negative = inhibition, most hits filed as inhibitors; hit rate 0.31% among 330,000; AID 540303; cell surface uPA generation assay, qHTS; active = well fitted inhibition curve with a large enough effect; inconclusive = small, poorly fitted or top-dose-only effect; inactive = no such curve, though single readings can be large or run the other way; tested in mouse RAW 264.7 cells; note: potency is the fitted concentration of half-maximal effect; % is set by controls: 0 for no effect and ±100 for the full control effect; nearly all actives have a fitted effect of over 55% in size
DT40 TDP1 CPT: DT40-hTDP1 cell growth loss with CPT. chicken DT40 Tdp1-/-;hTDP1 cells + 20 nM CPT, ATP luminescence, 48 h. Potency, µM (titrated, usually from 46.2 µM), inactives show top-dose activity change, negative = growth inhibition, most hits filed as inhibitors. hit rate 12% among 420,000. AID 686979; note: potency is the fitted concentration of half-maximal effect; % is set by controls: 0 for no effect and ±100 for the full control effect; nearly all actives have a fitted effect of over 55% in size
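Chicken DT40 Tdp1-/- cells stably complemented with human TDP1 were seeded at 400 cells/well in medium containing 20 nM camptothecin, exposed to pin-transferred compounds, and grown at 37 °C for at least 48 hr. Viability was read as ATP luminescence.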
DT40 TDP1 no CPT: qHTS for Inhibitors of human tyrosyl-DNA phosphodiesterase 1 (TDP1): qHTS in cells in absence of CPT; hit rate 15% among 420,000; AID 686978, 2013; DT40 Tdp1-/- hTDP1 cells, no CPT, ATP luminescence, 48 h; Potency, µM (top dose mostly 46.2 µM), for the others: at the highest dose activity change, negative = growth inhibition, most hits filed as inhibitors; note: potency is the fitted concentration of half-maximal effect; % is set by controls: 0 for no effect and ±100 for the full control effect; nearly all actives have a fitted effect of over 55% in size
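Compound effects on proliferation are scored in DT40 Tdp1-/-;hTDP1 cells in the absence of CPT. ATP levels (CellTiter-Glo luminescence) are recorded after a ≥48 hr, 37 °C incubation.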
miR-21 reporter: miR-21 reporter, rising signal | HeLa miR-21 FLuc reporter, luciferase, 48 h | Potency, µM (highest dose often 38.3 µM), for inactives: at the top dose reporter change, positive = more light | 340,000 tested, under 10 active | AID 2288; active = well fitted rising curve with a large enough effect; inconclusive = small, poorly fitted or top-dose-only effect; inactive = no such curve, though single readings can be large or run the other way;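 further: % of control where 0% means no effect; miR-21 action dims this reporter so a rising signal means less miR-21 action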
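Using DMEM plus 10% FBS, HeLa miR-21-FLuc cells are incubated with test compounds (final up to about 40uM) for 48 hours; firefly luciferase signal is then imaged following reagent-mediated lysis.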
Starred values were filed as active, the others as inactive; ? = inconclusive; · = no result given; [ ] = dose if it differs, or a comment. In the library only some 16% were active in any assay of this set; here they are far more common. Unless noted, calls come from the whole dose curve; as a rule, active = well fitted curve in the direction sought with a large enough effect; inconclusive = small, poorly fitted or top-dose-only effect, or another doubt; inactive = no such curve, though single readings can be large; an effect the other way counts as inactive or inconclusive.

Value order – TDP1 block | uPA surface inh | DT40 TDP1 CPT | DT40 TDP1 no CPT | miR-21 reporter
Cc1ccc(C(=O)OCn2ncc(Cl)c(Cl)c2=O)cc1
  -3.9% | -9.4% | 1.84µM* | 2.59µM* | ?
Cc1ccc(C(=O)COC(=O)c2nc(Cl)ccc2Cl)cc1
  -7.2% | 1.1% | 2.2% | 0.9% | ·
COC(=O)c1cc(NC(=O)COC(=O)C2CCC2)cc(C(=O)OC)c1
  0.2% | -1.9% | 6.5% | -2.4% | ·
CCn1ncc(CN2CCCC(C(=O)c3cccc(OC(C)C)c3)C2)c1C (centres undefined)
  0.0% | -2.8% | ? | ? | 0.5%
CSc1ccc(C(=O)C2CCCN(Cc3cccn3-c3cccnc3)C2)cc1 (centres undefined)
  5.4% | -5.7% | 4.61µM* | 5.17µM* | 12.2%
O=C(c1ccc2c(c1)OCO2)C1CCCN(Cc2cc(F)ccc2-n2cccn2)C1 (centres undefined)
  0.0% | -3.2% | -1.2% | -15.5% | -0.7%
COc1ccc(C(=O)C2CCCN(Cc3cccn3-c3cccnc3)C2)cc1OC (centres undefined)
  · | -2.3% | 16.4µM* | 14.6µM* | -1.7%
CC(C)Oc1cccc(C(=O)C2CCCN(Cc3cccn3-c3cccnc3)C2)c1 (centres undefined)
  8.3% | ? | ? | 13µM* | 15.0%
O=C(c1ccc2c(c1)OCO2)C1CCCN(Cc2cccn2-c2cccnc2)C1 (centres undefined)
  7.3% | 10.7% | 23.1µM* | 14.6µM* | 9.1%
COc1ccc(C(=O)C2CCCN(Cc3nc4ccccc4nc3C)C2)cc1OC (centres undefined)
  · | -6.4% | -22.6% | ? | 2.0%

Four entries picked at random from those above:
Value order – TDP1 block | uPA surface inh | DT40 TDP1 CPT | DT40 TDP1 no CPT | miR-21 reporter
O=C(c1ccc2c(c1)OCO2)C1CCCN(Cc2cccn2-c2cccnc2)C1 (centres undefined)
  7.3% | 10.7% | 23.1µM* | 14.6µM* | 9.1%
Cc1ccc(C(=O)OCn2ncc(Cl)c(Cl)c2=O)cc1
  -3.9% | -9.4% | 1.84µM* | 2.59µM* | ?
CCn1ncc(CN2CCCC(C(=O)c3cccc(OC(C)C)c3)C2)c1C (centres undefined)
  0.0% | -2.8% | ? | ? | 0.5%
COc1ccc(C(=O)C2CCCN(Cc3cccn3-c3cccnc3)C2)cc1OC (centres undefined)
  · | -2.3% | 16.4µM* | 14.6µM* | -1.7%

Other results follow.
Value order – TDP1 block | uPA surface inh | DT40 TDP1 CPT | DT40 TDP1 no CPT | miR-21 reporter
OCCC1CN(Cc2cccn2-c2cccnc2)CCN1C1CCCC1 (centres undefined)
  3.6% | -5.0% | 4.0% | 14.3% | -3.6%
CCn1c(=O)n(CC(=O)N2CCN(c3ccccc3F)CC2)c(=O)c2ccccc21
  4.1% | 1.2% | -3.2% | ? | -1.4%
NC(=O)COC(=O)c1ccc2c(c1)S(=O)(=O)N=C1CCCCCN12
  1.9% | 6.2% | 3.0% | -0.1% | -14.2%
COc1ccccc1C(C)N(C)Cc1nc(COc2ccccc2)no1 (centres undefined)
  2.6% | 1.7% | 12.7% | -4.2% | -5.8%
CN1C(=S)SC(C)(C)C1/[N+]([O-])=C/c1cccnc1 (centres undefined)
  4.8% | -3.2% | -2.3% | -14.1% | -0.7%
COc1ccc(NC(=O)N2CCCCCC2)cc1
  5.5% | 0.9% | 15.4% | -3.2% | -29.0%
COc1cc2c(N3CCN(C(=O)Nc4ccc(OC(C)C)cc4)CC3)ncnc2cc1OCCCN1CCCCC1
  · | · | ? | 21.1µM* | ·
CCCCNC(=O)C(CC)Sc1nnc(-c2cccc(F)c2)c(-c2cccc(F)c2)n1 (centres undefined)
  5.4% | · | 16.4µM* | ? | ?
CCCCNC(=O)C(CC)Sc1nnc(-c2ccc(F)cc2)c(-c2ccc(F)cc2)n1 (centres undefined)
  6.4% | · | ? | ? | 15.2%
Cc1nn(Cc2ccccc2)c(C)c1NC(=O)CSc1nc(C2CC2)nc2c1cnn2-c1ccccc1
  5.3% | 0.2% | 16.4µM* | 16.4µM* | -0.8%
CC1(C)NC(=O)N(c2ccc([N+](=O)[O-])c(C(F)(F)F)c2)C1=O
  -4.7%[56.1 µM] | 11.1% | 18.8µM* | 4.61µM* | ·
CC1(C)NC(=O)N(CCCCOc2ccccc2[N+](=O)[O-])C1=O
  6.0% | · | · | · | -8.4%
O=C(NC1CC1)c1ccc(Cn2c(SCc3ccccc3F)nc3cccnc32)cc1
  9.9% | · | 20.6µM* | 11.6µM* | ?
O=C(NC1CCCCC1)c1ccc(CSc2nc3cccnc3n2Cc2ccccc2F)cc1
  8.7% | · | ? | 20.6µM* | 12.8%
O=C(NC1CCCCC1)c1ccc(Cn2c(SCc3ccccc3F)nc3cccnc32)cc1
  1.2% | · | ? | 16.4µM* | 14.0%
CCOc1ccc(N2C(=O)C3CCCN3C2=S)cc1 (centres undefined)
  1.5% | 3.6% | -2.6% | -11.0% | ·

High-throughput results: PubChem BioAssay, National Center for Advancing Translational Sciences (NCATS)
